Experiments:
BACE1 = BACE1 (Homo sapiens, UniProt P56817); test: BACE1 biochemical FRET based assay; settings: recombinant BACE1 0.04 μg/ml, 20 μM substrate, 450 min, pH 5.0
Description: (§1) This assay is a Fluorescence Resonance Energy Transfer Assay (FRET) based assay. The substrate for this assay is an APP derived 13 amino acids peptide that contains the ‘Swedish’ Lys-Met/Asn-Leu mutation of the amyloid precursor protein (APP) beta-secretase cleavage site. This substrate also contains two fluorophores: (7-methoxycoumarin-4-yl) acetic acid (Mca) is a fluorescent donor with excitation wavelength at 320 nm and emission at 405 nm and 2,4-Dinitrophenyl (Dnp) is a proprietary quencher acceptor. […] Upon cleavage by BACE1, the fluorophore Mca is separated from the quenching group Dnp, restoring the full fluorescence yield of the donor. The increase in fluorescence is linearly related to the rate of proteolysis.
Briefly in a 384-well format recombinant BACE1 protein in a final concentration of 0.04 μg/ml is incubated for 450 minutes at room temperature with 20 μM substrate in incubation buffer (50 mM Citrate buffer pH 5.0, 0.05% PEG) in the presence of compound or DMSO. Next the amount of proteolysis is directly measured by fluorescence measurement (excitation at 320 nm and emission at 405 nm) at different incubation times (0, 30, 60, 90, 120 and 450 min). For every experiment a time curve (every 30 min between 0 min and 120 min) is used to determine the time where we find the lowest basal signal of the high control. The signal at this time (Tx) is used to subtract from the signal at 450 min. Results are expressed in RFU, as difference between T450 and Tx.
(§2) A best-fit curve is fitted by a minimum sum of squares method to the plot of % Controlmin versus compound concentration. From this an IC50 value (inhibitory concentration causing 50% inhibition of activity) can be obtained. • LC=Median of the low control values=Low control: Reaction without enzyme • HC=Median of the High control values=High Control: Reaction with enzyme
(§3) % Effect=100−[(sample−LC)/(HC−LC)*100]
(§4) % Control=(sample/HC)*100
(§5) % Controlmin=(sample−LC)/(HC−LC)*100

The chains behind the UniProt entries cited, without tags or fusion partners. Residues count along the entry.
UniProt P56817, 46-501 limits assumed: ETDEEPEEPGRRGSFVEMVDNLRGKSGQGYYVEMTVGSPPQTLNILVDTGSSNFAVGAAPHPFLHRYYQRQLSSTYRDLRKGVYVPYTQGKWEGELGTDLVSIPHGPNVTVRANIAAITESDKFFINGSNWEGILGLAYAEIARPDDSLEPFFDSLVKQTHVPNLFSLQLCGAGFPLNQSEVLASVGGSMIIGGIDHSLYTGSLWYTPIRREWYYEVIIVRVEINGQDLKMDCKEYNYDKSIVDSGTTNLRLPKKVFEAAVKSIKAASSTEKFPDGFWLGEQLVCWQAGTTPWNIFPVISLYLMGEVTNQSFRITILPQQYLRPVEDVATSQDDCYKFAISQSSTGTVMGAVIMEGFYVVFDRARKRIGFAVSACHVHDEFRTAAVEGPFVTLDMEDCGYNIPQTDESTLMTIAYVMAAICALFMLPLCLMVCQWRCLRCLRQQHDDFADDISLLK
UniProt Q9Y5Z0, 63-518 limits assumed: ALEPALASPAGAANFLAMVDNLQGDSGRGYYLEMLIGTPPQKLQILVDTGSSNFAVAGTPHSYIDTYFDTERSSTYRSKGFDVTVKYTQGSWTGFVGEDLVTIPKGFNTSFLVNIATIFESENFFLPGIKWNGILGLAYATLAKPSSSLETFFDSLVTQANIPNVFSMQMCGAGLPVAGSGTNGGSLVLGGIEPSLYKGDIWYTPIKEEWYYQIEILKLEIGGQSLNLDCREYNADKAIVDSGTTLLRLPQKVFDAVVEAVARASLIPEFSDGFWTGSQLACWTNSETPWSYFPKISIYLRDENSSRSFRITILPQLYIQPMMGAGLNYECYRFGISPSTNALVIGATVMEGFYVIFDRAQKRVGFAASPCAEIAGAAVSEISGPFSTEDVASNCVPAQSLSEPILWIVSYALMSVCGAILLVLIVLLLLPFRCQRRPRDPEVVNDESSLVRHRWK

[1] = tested on: Abeta total produced and secreted by SKNBE2 cells expressing hAPP695; test: Cellular αLisa assay in SKNBE2 cells, Abeta total; settings: SKNBE2 cells expressing hAPP695, 18 hours incubation
Procedure: (§6) In two αLisa assays the levels of Abeta total and Abeta 1-42 produced and secreted into the medium of human neuroblastoma SKNBE2 cells are quantified. The assay is based on the human neuroblastoma SKNBE2 expressing the wild type Amyloid Precursor Protein (hAPP695). The compounds are diluted and added to these cells, incubated for 18 hours and then measurements of Abeta 1-42 and Abeta total are taken. Abeta total and Abeta 1-42 are measured by sandwich αLisa. αLisa is a sandwich assay using biotinylated antibody AbN/25 attached to streptavidin coated beads and antibody Ab4G8 or cAb42/26 conjugated acceptor beads for the detection of Abeta total and Abeta 1-42 respectively. In the presence of Abeta total or Abeta 1-42, the beads come into close proximity. The excitation of the donor beads provokes the release of singlet oxygen molecules that trigger a cascade of energy transfer in the acceptor beads, resulting in light emission. Light emission is measured after 1 hour incubation (excitation at […] and emission at 615 nm).
as §2, with “cells preincubated” for “Reaction”, “compound, without biotinylated Ab in the αLisa” for “enzyme”, “cells preincubated without compound” for “Reaction with enzyme”
as §3, §4, §5

[2] = tested on: Abeta 1-42 produced and secreted by SKNBE2 cells expressing hAPP695; test: Cellular αLisa assay in SKNBE2 cells, Abeta 1-42; settings: SKNBE2 cells expressing hAPP695, 18 hours incubation
Procedure: as §6
as §2, with “cells preincubated” for “Reaction”, “compound, without biotinylated Ab in the αLisa” for “enzyme”, “cells preincubated without compound” for “Reaction with enzyme”
as §3, §4, §5

BACE2 = BACE2 (Homo sapiens, UniProt Q9Y5Z0); test: BACE2 biochemical FRET based assay; settings: recombinant BACE2 0.4 μg/ml, 10 μM substrate, 450 min, pH 5.0
Description: as §1, with “assay” for “assay is an APP derived 13 amino acids peptide that”, “the beta-secretase,” for “BACE1,”
Briefly in a 384-well format recombinant BACE2 protein in a final concentration of 0.4 μg/ml is incubated for 450 minutes at room temperature with 10 μM substrate in incubation buffer (50 mM Citrate buffer pH 5.0, 0.05% PEG, no DMSO) in the absence or presence of compound. Next the amount of proteolysis is directly measured by fluorescence measurement at T=0 and T=450 (excitation at 320 nm and emission at 405 nm). Results are expressed in RFU (Relative Fluorescence Units), as difference between T450 and TO.
as §2, §3, §4, §5

Row | SMILES | BIOCHEMICAL FRET BASED ASSAY pIC50 (BACE1) | CELLULAR αLISA ASSAY IN SKNBE2 CELLS ABETA TOTAL pIC50 [1] | CELLULAR αLISA ASSAY IN SKNBE2 CELLS ABETA 42 PIC50 [2] | BIOCHEMICAL FRET BASED ASSAY pIC50 (BACE2)
1 | COc1ncc(-c2ccncc2Cl)c2c1C[C@]1(c3ccc(F)cc3F)N=C(N)SC[C@@H]1C2 | 8.15 | 8.46 | 8.45 | 7.03
2 | COc1ncc(-c2ccc(C#N)cc2C)c2c1C[C@]1(c3ccc(F)cc3F)N=C(N)SC[C@@H]1C2 | 8.35 | 8.31 | 8.26 | 7.27
3 | COc1ncc(-c2cc(C)ncc2C)c2c1C[C@]1(c3ccc(F)cc3F)N=C(N)SC[C@@H]1C2 | 7.44 | – | 8.19 | 5.83
4 | COc1ncc(-c2cc(C#N)ccc2C)c2c1C[C@]1(c3ccc(F)cc3F)N=C(N)SC[C@@H]1C2 | 8.17 | 7.96 | 8.13 | 6.4
5 | COc1ncc(-c2cccc(C#N)c2)c2c1C[C@]1(c3ccc(F)cc3F)N=C(N)SC[C@@H]1C2 | 8.22 | – | 8.39 | 8.06
6 | COc1ncc(OC(C)C)c2c1C[C@]1(c3ccc(F)cc3F)N=C(N)SC[C@@H]1C2 | 8.56 | 8.68 | 8.65 | 8.56
7 | COc1ncc(-c2ccncc2C)c2c1C[C@]1(c3ccc(F)cc3F)N=C(N)SC[C@@H]1C2 | 8.5 | – | 9.04 | 7.16
8 | COc1ncc(-c2cnccc2C)c2c1C[C@]1(c3ccc(F)cc3F)N=C(N)SC[C@@H]1C2 | 7.88 | 8.7 | 8.7 | 6.67
9 | COc1ncc(-c2ccnc(C#N)c2C)c2c1C[C@]1(c3ccc(F)cc3F)N=C(N)SC[C@@H]1C2 | 7.94 | 8.24 | 8.36 | 6.65
10 | COc1cncc(-c2cnc(OC)c3c2C[C@H]2CSC(N)=N[C@@]2(c2ccc(F)cc2F)C3)c1 | 7.95 | – | 8.42 | 7.69
11 | COc1ncc(-c2cccn(C)c2=O)c2c1C[C@]1(c3ccc(F)cc3F)N=C(N)SC[C@@H]1C2 | 6.69 | – | 7.21 | 5.23
12 | COc1nccc2c1CC1(c3ccc(Cl)cc3F)N=C(N)SCC1C2 (single isomer, unassigned) [196] | <5 | <5.05 | <5.05 | <5
13 | COc1ncc(-c2ccc(=O)n(C)c2)c2c1C[C@]1(c3ccc(F)cc3F)N=C(N)SC[C@@H]1C2 | 7.81 | – | 8.25 | 7.32
14 | COc1ncc(-c2cnc(C)cc2C)c2c1C[C@]1(c3ccc(F)cc3F)N=C(N)SC[C@@H]1C2 | 7.25 | 8.2 | 8.3 | 6.08
15 | COc1nccc2c1CC1(c3ccc(Cl)cc3F)N=C(N)SCC1C2 (single isomer, unassigned) [197] | 7.02 | 7.33 | 7.31 | 7
16 | COC(=O)c1ccccc1-c1cnc(OC)c2c1C[C@H]1CSC(N)=N[C@@]1(c1ccc(F)cc1F)C2 | 6.19 | – | 6.32 | 5.34
